The numbers were not newly measured in article PMC10855341, “Inhibition of Apoptosis in a Model of Ischemic Stroke Leads to Enhanced Cell Survival, Endogenous Neural Precursor Cell Activation and Improved Functional Outcomes” (International Journal of Molecular Sciences, 2024), which cites them from elsewhere.

The conditions of the data set: cited from earlier work.

zVAD-fmk: the “penetration into the brain” value was “poor penetration into the brain”.
